Values quoted from earlier work in patent publication US20230114360A1, “Sublingual Delivery for Mitigation of Side Effects Associated with Zicronapine” (priority 2014, published 2023).

metabolites or conjugates identified (absence of liver metabolism): No metabolites or conjugates | therapeutic plasma level (after a meal): one to two | time until gastrointestinal absorption is apparently complete (after ingestion): six | therapeutic plasma level (fasting state): one-half to one
SMILES: CN(C)C(=N)N=C(N)N [Metformin, dimethylbiguanide]

Where two headings read alike, the source gives them in different places.
